Assay results published in patent publication US11578265B2, “AIEgens for cancer cell imaging” (THE HONG KONG UNIVERSITY OF SCIENCE AND TECHNOLOGY, priority 2016, dated 2023).

Assays:
[1] = system: normal cells (mouse embryo NIH 3T3, Canis familiaris kidney MDCK.2, and monkey kidney COS-7); experiment: Background signals from normal cells with mAb-dye conjugates; type: cell-based; conditions: 10 μg/mL, 12 hours, after washing
Method: The background signals from normal cells were also checked. Different normal cells (mouse embryo NIH 3T3, Canis familiaris kidney MDCK.2, and monkey kidney COS-7) with different levels of EGFR expression were incubated by mAb-dye conjugates for 12 hours (FIG. 35), and the images were taken after washing. […] The difference may be attributed to the “turn-on” property of the mAb-AIEgen conjugates controlled by antibody degradation.

HEK-293 cells = experiment: Wash-free cell imaging with mAb-dye conjugates; type: cell-based, human; conditions: HEK-293, 12 hours, 10 μg/mL
Description: Exposure time is 1 second for all pictures. Scale bars are 30 μm.
The fluorescence of CSPP needed to be activated by high viscosity or a strong electrostatic interaction due to RIM. As such, it has potential to be used for wash-free cell imaging. HCC827 cells (human non-small lung cancer cells with EGFR overexpression) and HEK-293 cells (EGFR-negative human embryonic kidney cells) were used for cell imaging.

[2] = Parameters and concentration-dependent emission of mAb-dye conjugates; type: physicochemical

## mAb-Cy3: commercial dye conjugated antibody (cetuximab labeled with Cy3) [reference compound]
[1]
  fluorescence in normal cells: some fluorescent signals
HEK-293 cells
  fluorescence and background without washing: background was too strong
[2]
  ε (molar absorptivity): 162000 L/mol/cm
  λabs: 550 nm
  λem: 567 nm
[2]; in PBS, versus probe concentration
  fluorescence at high conjugate concentration: became weaker at a high concentration
